Source: patent publication US7166612B2, “Methods for reducing platelet activation platelet aggregaton or thrombosis” (Beth Israel Deaconess Medical Center, priority 2001, dated 2007)

System: laser-induced thrombi in cremaster arterioles
Conditions: in words
From the text: A preferred animal model involves intravital microscopy of laser-induced thrombi. The method is described by Rosen et al., 2001, Am J Pathol 158, 1613–1622, which is incorporated herein by reference. Minor variations of that method were employed as described below.
Experimental mice are pre-anesthetized and surgically prepared. A tracheal tube is placed to facilitate breathing and the jugular vein is canulated to allow for maintenance of anesthetic and introduction of compound. The cremaster muscle is then exteriorized. The muscle is affixed over a glass slide, allowing illumination from below. […]
Thrombosis is initiated by damaging the vessel wall (of a 30 μm vessel) with a laser pulse from a MicroPoint LASER attached to the microscope. […] The recruitment of platelets to the thrombus is then monitored by the accumulation of (activated) Alexa 488-labeled platelets at the ablation site using fluorescence microscopy, and the process is recorded digitally. The method thus permits in vivo analysis of platelet activation as measured by platelet aggregation and thrombosis.
The degree of embolization in an untreated mouse can be quantified using software for image analysis, e.g., BioQuant True Color Windows (Biometrics, Nashville, Tenn.), as described in Rosen et al., 2001, supra. […]

With “9-methylene-4-(alkyl)-2,3,4,9-tetrahydro-1H-cyclopenta(b)quinoline” the tolerability in mice was “tolerated”.
